# Assays:
# [1] = Safety and tolerability of oral Compound (I) and metformin alone or in combination in male volunteers; settings: Compound (I) 2 mg Q12h, M 500 mg Q12h, or the combination, each for 4 days
# [2] = Steady-state pharmacokinetics of Compound (I) and metformin alone and in combination in male volunteers (plasma, day 4); settings: Combn = Compound (I) + M coadministration, oral, Compound (I) 2 mg Q12h + M 500 mg Q12h for 4 days
T½ [2] [h],Structure (SMILES),Episodes of hypoglycaemia [1],Tmax [2] [h],Safety and tolerability of oral doses [1]
3.41,"CN(CCOc1ccc(CC2SC(=O)NC2=O)cc1)c1ccccn1 (stereo not drawn) [Compound (I), 5-[4-[2-(N-methyl-N-(2-pyridyl)amino)ethoxy]benzyl]thiazolidine-2,4-dione]",no episodes of hypoglycaemia,3.5,
,"CN(C)C(=N)N=C(N)N [M, 1,1-Dimethylbiguanidine, reference compound]",no episodes of hypoglycaemia,3.5,safe and well tolerated
